According to US20010010919A1 (priority 1998, published 2001):

What was measured:
[1] = system: mice; test: Nociception in mice (hot plate, toe- and tail-pinch) after icv or intrathecal administration
[2] = system: Swiss-Webster mice; test: Reversal of morphine analgesia, 49° C. TW test; conditions: 25 nmol OFQ i.c.v.
[3] = system: C57BL/6J mice; test: Precipitation of withdrawal in morphine dependent mice (withdrawal jumping); conditions: OFQ doses >5 nmole

With `CC(C)C[C@H](NC(=O)[C@H](CCCCN)NC(=O)[C@H](CCCN=C(N)N)NC(=O)[C@H](C)NC(=O)[C@H](CO)NC(=O)[C@H](CCCCN)NC(=O)[C@H](CCCN=C(N)N)NC(=O)[C@H](C)NC(=O)CNC(=O)[C@@H](NC(=O)[C@H](Cc1ccccc1)NC(=O)CNC(=O)CNC(=O)[C@@H](N)Cc1ccccc1)[C@@H](C)O)C(=O)N[C@@H](C)C(=O)N[C@@H](CC(N)=O)C(=O)N[C@@H](CCC(N)=O)C(=O)O` [OFQ] as the compound, how does the “side effects at the highest intrathecal dose” value [1] read?
Its value is “hind limb paralysis and decrease in locomotor activity”.

And the “marked atonia and flaccid paralysis” value [2]?
Its value is “up to 50 % of mice”.

And the “atonia in morphine-dependent mice” value [3]?
Its value is “produced atonia in some morphine-dependent mice”.
